The text below walks through data of paper PMC4552487.

The target in assay [1] is full-length wild-type Parkin (1-465), untagged (UniProt O60260).
Assay [2] deals with full-length Parkin His302Ala (H302A) mutant, untagged (UniProt O60260). Put plainly: ITC; ubiquitin^PhosSer65 in the syringe titrated into 50 μM wild-type or mutant Parkin in the cell; 50 mM HEPES pH 8.0, 150 mM NaCl, 500 μM TCEP; 20°C; single binding site model. For orientation: ITC needs no label: the signal is the heat of the interaction.
The target of assay [3] is full-length wild-type Parkin (1-465), untagged (UniProt O60260). Described as above.

With “Ser65-phosphorylated ubiquitin (ubiquitin^Phospho-Ser65) (from UniProt P0CG53 1-76) (natural protein)”, the stoichiometry of phosphorylation of Parkin Ubl Ser65 by PINK1 in a kinase assay, increasing ubiquitin^Phospho-Ser65 up to 3-fold excess over Parkin (∼0.2 without) in assay [1] was found to be 0.9. For the same substance, the Kd (usually the equilibrium constant for the complex coming apart) in assay [2] turned out to be 42 µM; in assay [3], 0.156 µM.
